This passage reports Ki results from ChEMBL document CHEMBL1155007, “Synthesis and monoamine transporter binding properties of 2beta-[3'-(substituted benzyl)isoxazol-5-yl]- and 2beta-[3'-methyl-4'-(substituted phenyl)isoxazol-5-yl]-3beta-(substituted phenyl)tropanes” (Bioorg Med Chem, 2008).

Sequences of proteins named here, by UniProt entry; tags and fusion partners are left off.
UniProt P31645, whole entry: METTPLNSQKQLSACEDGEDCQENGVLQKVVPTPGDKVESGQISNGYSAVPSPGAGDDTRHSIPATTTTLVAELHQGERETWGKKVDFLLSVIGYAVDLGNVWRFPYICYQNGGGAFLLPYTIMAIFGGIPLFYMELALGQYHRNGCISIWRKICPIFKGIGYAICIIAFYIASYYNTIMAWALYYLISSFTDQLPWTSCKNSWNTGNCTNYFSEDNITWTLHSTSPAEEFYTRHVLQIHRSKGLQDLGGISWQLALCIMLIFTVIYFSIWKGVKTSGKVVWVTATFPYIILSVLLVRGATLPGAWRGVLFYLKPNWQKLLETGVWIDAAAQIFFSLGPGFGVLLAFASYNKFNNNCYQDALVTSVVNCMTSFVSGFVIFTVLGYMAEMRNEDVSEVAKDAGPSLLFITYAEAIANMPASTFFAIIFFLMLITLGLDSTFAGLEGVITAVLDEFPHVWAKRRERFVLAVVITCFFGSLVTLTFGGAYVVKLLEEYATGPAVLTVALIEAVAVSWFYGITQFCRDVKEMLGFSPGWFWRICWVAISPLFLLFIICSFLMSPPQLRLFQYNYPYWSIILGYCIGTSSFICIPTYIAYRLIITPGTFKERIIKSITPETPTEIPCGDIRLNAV

The target of the test is Sodium-dependent serotonin transporter (Homo sapiens, UniProt P31645). In words: Displacement of [3H]paroxetine from 5HTT. In outline:
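Competitive radioligand binding at the serotonin transporter, with 0.2 nM [3H]paroxetine as the final radioligand concentration. Compounds were tested as HCl salts. Values are means ± standard error of three or four experiments, each run in duplicate.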
(Displacement assays read how much labelled ligand stays bound in the presence of the test substance.)

Turning to `COC(=O)[C@@H]1C2CC[C@H](C[C@@H]1c1ccccc1)N2C`, the Ki (usually the equilibrium dissociation constant of an inhibitor or competing ligand from its target) amounted to 182 nM.
